# Values quoted from earlier work in paper PMC11823679, “Protamine protects against vancomycin-induced kidney injury” (Antimicrobial Agents and Chemotherapy, 2025).
# Test system: OAT1
# Settings: read-out: IC50 (referent); exemplar inhibitor; CHOK1 cells; ref referent IC50 results on file (Eurofins); cited from earlier work
compound,measurement,value
CCCN(CCC)S(=O)(=O)c1ccc(C(=O)O)cc1 [probenecid],IC50,1.6 µM
